From patent US10316017B2, “COT modulators and methods of use thereof” (Gilead Sciences, Inc., priority 2015, dated 2019)
Read-outs that look alike come from different tables or passages of the source.

Amino acid sequences for entries named in this document (tags omitted). Residues count along the entry.
UniProt P41279, 30-397 limits assumed: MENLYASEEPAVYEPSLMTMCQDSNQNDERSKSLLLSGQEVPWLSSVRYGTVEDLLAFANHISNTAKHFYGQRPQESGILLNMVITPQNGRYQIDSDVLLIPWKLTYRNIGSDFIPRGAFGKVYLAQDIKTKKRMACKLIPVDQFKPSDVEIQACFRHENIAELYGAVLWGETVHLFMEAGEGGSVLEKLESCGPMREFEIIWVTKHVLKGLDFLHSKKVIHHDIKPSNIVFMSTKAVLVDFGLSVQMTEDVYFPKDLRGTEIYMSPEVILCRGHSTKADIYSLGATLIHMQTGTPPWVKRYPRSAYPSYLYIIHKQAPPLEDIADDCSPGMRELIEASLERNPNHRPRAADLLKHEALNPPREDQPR

Columns and labels:
[1] = tested on: TNFα production in LPS-stimulated human monocytes; experiment: Cot Monocyte TNFα Cell Based Assay; settings: read-out: EC50 TNF
[2] = molecular target: human Cot catalytic domain (30-397 amino acids) (Homo sapiens, UniProt P41279); experiment: High Throughput Cot Biochemical Assay (KinEASE TR-FRET); settings: read-out: IC50 HTRF, 400 μM ATP
[3] = TNFα in LPS-stimulated human monocytes
[4] = Cot KinEASE TR-FRET (HTRF) biochemical assay
[5] = LPS-stimulated human monocytes, TNFα TR-FRET

EC50 [1, 3] | IC50 [2, 4] | EC50 [1, 5] | Compound | IC50 ([2]; Cot KinEASE TR-FRET)
4.39 µM | 0.431 µM | – | [2H][C@](Nc1cc(Cl)c2ncc(C#N)c(NC3(C)CC3)c2c1)(c1cn(C2CC2)nn1)c1ccccc1Cl | –
0.279 µM | 0.011 µM | – | [2H][C@](Nc1cc(Cl)c2ncc(C#N)c(NCC(C)(C)C)c2c1)(c1cn(C2COC2)nn1)c1ccccc1Cl | –
0.345 µM | 0.019 µM | – | [2H][C@](Nc1cc(Cl)c2ncc(C#N)c(NCC(C)(C)C)c2c1)(c1cn([C@@H](C)CF)nn1)c1ccccc1Cl | –
0.086 µM | – | – | [2H][C@@](Nc1cc(Cl)c2ncc(C#N)c(NC(CCC#N)c3ccccc3)c2c1)(c1cn(C2CC2)nn1)c1ccccc1Cl (some centres unmarked) | –
0.054 µM | – | – | [2H][C@@](Nc1cc(Cl)c2ncc(C#N)c(NCC(C)(C)C)c2c1)(c1cccc(C#N)c1)c1cn(C2(C#N)CC2)nn1 | –
0.158 µM | – | – | [2H][C@](Nc1cc(Cl)c2ncc(C#N)c(N[C@H](CC)c3ccccc3)c2c1)(c1ccccc1)c1cn(C2CC2)nn1 | –
> 1 µM | 0.128 µM | – | [2H][C@](Nc1cc(Cl)c2ncc(C#N)c(NCC(C)(C)C)c2c1)(c1cn([C@@H]2C[C@@H]2C(F)(F)F)nn1)c1ccccc1Cl | –
– | – | – | N#Cc1cnc2c(Cl)cc(NC(c3ccc(F)cc3)c3cn([C@@H]4CCN(C(=O)OCc5ccccc5)C4)nn3)cc2c1Nc1ccc(F)c(Cl)c1 (some centres unmarked) | 0.364 µM
0.127 µM | 0.016 µM | – | [2H][C@](Nc1cc(Cl)c2ncc(C#N)c(NCC(C)(C)C)c2c1)(c1cn(C2(C#N)CC2)nn1)c1ccccc1Cl | –
0.013 µM | – | – | [2H][C@](Nc1cc(Cl)c2ncc(C#N)c(N[C@H](CCC#N)c3ccccc3)c2c1)(c1cccc(C#N)c1)c1cn(C2CC2)nn1 | –
0.653 µM | – | – | [2H][C@](Nc1cc(Cl)c2ncc(C#N)c(Nc3cnc(F)c(F)c3)c2c1)(c1ccc(F)cc1)c1cn(CC(F)F)nn1 | –
0.043 µM | – | – | [2H][C@](Nc1cc(Cl)c2ncc(C#N)c(N[C@H]3CCOCC3(C)C)c2c1)(c1ccc(F)cc1)c1cn(C2CC2)nn1 | –
0.435 µM | 0.026 µM | – | [2H][C@@](Nc1cc(C#N)c2ncc(C#N)c(N[C@H](CC)c3ccccc3)c2c1)(c1cn(C2(C(F)(F)F)CC2)nn1)c1ccccc1Cl | –
0.495 µM | 0.05 µM | – | [2H][C@](Nc1cc(Cl)c2ncc(C#N)c(NCC(C)(C)C)c2c1)(c1cn(CC(O)C(F)(F)F)nn1)c1ccccc1Cl (some centres unmarked) | –
0.36 µM | 0.02 µM | – | [2H][C@](Nc1cc(Cl)c2ncc(C#N)c(N[C@H](CS(C)(=O)=O)c3ccccc3)c2c1)(c1ccc(F)cc1)c1cn(C2CC2)nn1 | –
4.16 µM | 0.476 µM | – | [2H][C@](Nc1cc(Cl)c2ncc(C#N)c(NCCC#N)c2c1)(c1ccc(F)cc1)c1cn(C2CC2)nn1 | –
1.61 µM | 0.373 µM | – | [2H][C@](Nc1cc(Cl)c2ncc(C#N)c(NC3(C(C)(C)C)CC3)c2c1)(c1ccc(F)cc1)c1cn(C2CC2)nn1 | –
> 10 µM | 3.24 µM | – | [2H][C@](Nc1cc(Cl)c2ncc(C#N)c(NCCc3ncc[nH]3)c2c1)(c1ccc(F)cc1)c1cn(C2CC2)nn1 | –
0.125 µM | – | – | [2H][C@](Nc1cc(Cl)c2ncc(C#N)c(N[C@@H](c3ccccc3)[C@H]3C[C@@H]3C#N)c2c1)(c1ccc(F)cc1)c1cn(C2CC2)nn1 | –
– | – | 0.084 µM | [2H][C@](Nc1cc(Cl)c2ncc(C#N)c(NCC(C)(C)C)c2c1)(c1cn(C2(c3ccccn3)CC2)nn1)c1ccccc1Cl | –
0.469 µM | 0.028 µM | – | [2H][C@](Nc1cc(Cl)c2ncc(C#N)c(NCC3(C)CCC3)c2c1)(c1cn(C2CC2)nn1)c1ccccc1Cl | –
0.536 µM | 0.052 µM | – | [2H][C@](Nc1cc(Cl)c2ncc(C#N)c(NCC(C)(C)F)c2c1)(c1ccc(F)cc1)c1cn(C2CC2)nn1 | –
0.117 µM | – | – | [2H][C@@](Nc1cc(F)c2ncc(C#N)c(NCC(C)(C)C)c2c1)(c1ccc(F)cc1)c1cn(C2CC2)nn1 | –
– | – | 0.346 µM | [2H][C@@](Nc1cc(Cl)c2ncc(C#N)c(NCC34CC(C3)C4)c2c1)(c1cccc(C#N)c1)c1cn(C2CC2)nn1 | 0.007 µM
